Literature values in article PMC5045922, “In vivo pharmacological activity and biodistribution of S-nitrosophytochelatins after intravenous and intranasal administration in mice” (Nitric Oxide, 2016).

Assays:
[1] = set-up: method as in PMID 15901798, PMID 15295794; conditions: i.v. 1.5 μmol NO/kg; cited from earlier work
[2] = set-up: method as in PMID 15901798, PMID 15295794, PMID 19646492; conditions: intravenous bolus 0.001–0.3 μmol/kg, cited from earlier work

**Q.** For S-nitroso albumin [AlbSNO], which “tmax for plasma nitrites” value [1] is on record?
**A.** ~10 min

**Q.** What about the “decrease in blood pressure with co-administration of low molecular weight thiols” value ([2]; co-administration of low molecular weight thiols) of the same substance?
**A.** ~60%

**Q.** And the “decrease in blood pressure compared to baseline” value [2]?
**A.** ~35%
